Assay: Stability of the product at room temperature (purity change by HPLC)
Settings: for HPLC purity: room temperature

Substance | Stability (decomposition) (room temperature for 24 hours) | HPLC purity (time 0 month) | HPLC purity (time 1 month) | HPLC purity (time 2 months) | HPLC purity (time 3 months) | HPLC purity (time 9 months) | HPLC purity (time 9 months, listed as product form 2)
contezolid acefosamil [Product form 3] | substantially free of decomposition | 97.54% | 96.61% | 96.77% | 96.84% | 95.81% | 
contezolid acefosamil [Product form 2] |  | 97.29% | 94.27% | 92.99% | 91.27% | 83.21% | 83.21%

— US12180242B2, “Pharmaceutical crystal of contezolid acefosamil, preparation method therefor, and uses thereof” (dated 2024)
